From PMC4323000 (Oncotarget, 2015)

Assay: Pharmacokinetic study of MBL-II-141, CPT-11 and SN-38 (blood, liver, brain; LC-MS/MS)
Details: CPT-11 20 mg/kg + MBL-II-141 10 mg/kg IP

With CCc1c2c(nc3ccc(OC(=O)N4CCC(N5CCCCC5)CC4)cc13)-c1cc3c(c(=O)n1C2)COC(=O)[C@]3(O)CC [CPT-11, irinotecan] the “impact of MBL-II-141 on CPT-11 liver levels” value was “no impact”.
